Measured values published in patent US20040003424A1, “Transgenic cardiomyocytes with controlled proliferation and differentiation” (Board of Regents, The University of Texas System, priority 2002, published 2004).

System: NkL-TAg cells
Assay: Induction of differentiation of NkL-TAg cells, sarcomeric α-actinin immunocytochemistry
Type: cell-based, mouse
Settings: NkL-TAg cells after removal of TAg, in differentiation medium (5% horse serum, insulin, transferrin, selenium)
Procedure: Cell Culture. Cells were isolated from sub-endocardial tumor-like structures in the hearts of transgenic mice as previously described with some modifications (Paradis et al, 1996). Briefly, dissected tissues were minced and dissociated using an enzyme mix containing 0.2% […] (Worthington) and 0.6 mg/ml of pancreatin (Sigma). Cardiac cells derived from Nk-TAg and NkL-TAg mice were maintained in DMEM/F12 media supplemented with 100 IU/ml penicillin, 100 μg/ml streptomycin, 2 mM Lglutamine, and 10% fetal bovine serum (FBS) on plates coated with […] fibronectin and 0.1% 2 gelatin. Cloning cylinders were used to harvest cell clones. Cell growth curves were generated by plating 1.5×10^5 or 2×10^5 cells (as indicated) in growth medium onto 100 mm plates and counting total cell number every 24 hours for 5 days. Differentiation medium contains DMEM/F12 supplemented with 100 IU/ml penicillin, 100 μg/ml streptomycin, 2 mM L-glutamine, 5% heat inactivated horse serum, […], […] and 6.7 ng/ml sodium selenite.
Histochemical Analysis. Heart tissue was fixed in 10% phosphate-buffered formalin and stained with hematoxylin-eosin. […] Coverslips were mounted with Vectashield (Vector Laboratories) and fluorescence or confocal images were captured using Leica DMRXE or Zeiss 3.95 microscopes, respectively. […]

B1: BMP2/4: bone morphogenetic protein (BMP)-2/4 (Genetics Institute) (protein, UniProt P12643 283-396; P12644 293-408, looked up)
Bone morphogenetic protein 2: QAKHKQRKRLKSSCKRHPLYVDFSDVGWNDWIVAPPGYHAFYCHGECPFPLADHLNSTNHAIVQTLVNSVNSKIPKACCVPTELSAISMLYLDENEKVVLKNYQDMVVEGCGCR
Bone morphogenetic protein 4: SPKHHSQRARKKNKNCRRHSLYVDFSDVGWNDWIVAPPGYQAFYCHGDCPFPLADHLNSTNHAIVQTLVNSVNSSIPKACCVPTELSAISMLYLDEYDKVVLKNYQEMVVEGCGCR
  induction of sarcomere formation: further induction of sarcomere formation in some cells
